Read-outs that look alike come from different tables or passages of the source.
How the values were obtained:
Lysin-Acetylierung = assay: Cellular lysine acetylation, ELISA-like assay with pan-anti-acetyllysine antibody; format: cell-based; details: for Effekt auf die Acetylierung an Lysinen: in words; for cytotoxischer Effekt: acetylation assay, tested form: HI
[1] = test system: Estrogen-Rezeptor α (ER α); assay: Transient transfection luciferase reporter assay, estrogen receptor α mediated gene activation in HEK293 cells; format: cell-based; details: HEK293-Zellen; for cytotoxischer Effekt: estrogen receptor reporter assay; for inhibitorisches Potential bei der estrogenrezeptorvermittelten Aktivierung: in words
Androgenrezeptor (AR) = assay: Transient transfection luciferase reporter assay, androgen receptor mediated gene activation in LnCap cells; format: cell-based; details: LnCap-Zellen; for Reduzierung der androgenvermittelten Rezeptoraktivierung, verglichen mit den übrigen Substanzen: highest concentration, relative to the other substances; for antiandrogene Potenz: in words; for cytotoxischer Effekt: androgen receptor reporter assay
Arg3 im Histon H4 = assay: Cellular hypomethylation, ELISA-like assay with anti-dimethyl-histone H4(Arg3) antibody; format: cell-based; details: HepG2-Zellen; for Reduktion der Methylierung an Arg3 Histon H4: 25 µM; for cytotoxischer Effekt: methylation assay, tested form: HI
RmtA = RmtA (Emericella nidulans, UniProt Q5VLE3)
SET7/9 = SET7/9 (Homo sapiens, UniProt Q8WTS6); assay: In vitro selectivity test against lysine methyltransferase; details: in-vitro test system, in words
PRMT1 = PRMT1 (Homo sapiens, UniProt Q99873); assay: In vitro enzyme inhibition assay, immobilised oligopeptide substrate, antibody/Europium time-resolved fluorescence detection; format: biochemical; details: read-out: Hemmung PRMT1 (IC50 + SD), IC50 with SD

Protein sequences, listed by entry. Tags and fused reporters are not part of them. Residues count along the entry.
UniProt Q5VLE3, 1-345: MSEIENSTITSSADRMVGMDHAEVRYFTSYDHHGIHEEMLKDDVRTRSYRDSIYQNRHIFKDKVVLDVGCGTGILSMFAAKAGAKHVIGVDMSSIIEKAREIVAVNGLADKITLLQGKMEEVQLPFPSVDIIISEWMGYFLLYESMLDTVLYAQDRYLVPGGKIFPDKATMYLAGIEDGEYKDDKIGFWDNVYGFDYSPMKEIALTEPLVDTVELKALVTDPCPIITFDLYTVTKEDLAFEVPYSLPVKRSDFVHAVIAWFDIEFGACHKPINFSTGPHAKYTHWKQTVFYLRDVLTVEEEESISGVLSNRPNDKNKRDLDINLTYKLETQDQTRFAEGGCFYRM
UniProt Q8WTS6, whole entry: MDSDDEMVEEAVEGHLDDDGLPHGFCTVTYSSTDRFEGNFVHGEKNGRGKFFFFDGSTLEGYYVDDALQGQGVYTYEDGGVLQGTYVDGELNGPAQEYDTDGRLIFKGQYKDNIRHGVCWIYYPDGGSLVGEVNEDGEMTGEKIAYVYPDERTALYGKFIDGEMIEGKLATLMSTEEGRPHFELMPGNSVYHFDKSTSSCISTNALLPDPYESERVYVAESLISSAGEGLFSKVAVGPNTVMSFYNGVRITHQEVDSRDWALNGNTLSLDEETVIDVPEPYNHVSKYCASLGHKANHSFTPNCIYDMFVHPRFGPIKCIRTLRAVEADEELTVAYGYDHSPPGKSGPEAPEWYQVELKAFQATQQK
UniProt Q99873, whole entry: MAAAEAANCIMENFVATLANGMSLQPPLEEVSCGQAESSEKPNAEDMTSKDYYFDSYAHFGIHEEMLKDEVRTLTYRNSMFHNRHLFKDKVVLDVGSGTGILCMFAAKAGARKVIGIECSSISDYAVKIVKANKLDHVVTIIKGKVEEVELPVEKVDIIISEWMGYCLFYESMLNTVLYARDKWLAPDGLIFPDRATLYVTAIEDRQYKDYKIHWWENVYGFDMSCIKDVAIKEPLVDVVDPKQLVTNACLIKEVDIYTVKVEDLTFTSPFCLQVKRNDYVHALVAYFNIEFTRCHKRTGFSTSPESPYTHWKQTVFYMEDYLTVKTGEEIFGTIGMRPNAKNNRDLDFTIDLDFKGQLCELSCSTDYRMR

| SMILES | Effekt auf die Acetylierung an Lysinen (Lysin-Acetylierung) | cytotoxischer Effekt [1] | inhibitorisches Potential bei der estrogenrezeptorvermittelten Aktivierung [1] | Reduzierung der androgenvermittelten Rezeptoraktivierung, verglichen mit den übrigen Substanzen (Androgenrezeptor (AR)) | antiandrogene Potenz (Androgenrezeptor (AR)) | Reduktion der Methylierung an Arg3 Histon H4 (Arg3 im Histon H4) [%] | Hemmung RmtA (%Inh. bei 10 µM) (RmtA) | Reduktion der Acetylierung an Lysinen in Core-1-Histonen (Lysin-Acetylierung; 25 µM) [%] | inhibitorisches Potential gegenüber SET7/9 (SET7/9) | IC50 (PRMT1) [µM] | cytotoxischer Effekt (Lysin-Acetylierung) | cytotoxischer Effekt ([1]; tested form: HI) | cytotoxischer Effekt (Androgenrezeptor (AR); tested form: HI) | Reduzierung der androgenvermittelten Rezeptoraktivierung, verglichen mit den übrigen Substanzen (Androgenrezeptor (AR); tested form: HI) | antiandrogene Potenz (Androgenrezeptor (AR); tested form: HI) | cytotoxischer Effekt (Arg3 im Histon H4) | IC50 (PRMT1; tested form: HI) [µM] | Hemmung RmtA (%Inh. bei 10 µM) (RmtA; tested form: HI) |
| --- | --- | --- | --- | --- | --- | --- | --- | --- | --- | --- | --- | --- | --- | --- | --- | --- | --- | --- |
| NCCCCCOc1cc(-c2cccnc2)nc(-c2cccnc2)c1 | keinen Effekt | ohne jedoch einen cytotoxischen Effekt | das größte inhibitorische Potential | ≥ 2 -fach | Besonders hohe antiandrogene Potenz | > 50 | 53,7% | – | – | – | – | – | – | – | – | – | – | – |
| NCCCCCSc1cc(-c2ccc(Cl)cc2)nc2c(-c3ccccc3)cnn12 | indirekte Beeinflussung des Acetylierungslevels | ohne jedoch einen cytotoxischen Effekt | das größte inhibitorische Potential | ≥ 2 -fach | Besonders hohe antiandrogene Potenz | > 50 | 22,8% | > 50 | inhibitorisches Potential gegenüber SET7/9 | 9.32 | – | – | – | – | – | – | – | – |
| CNCCCCCc1nc(-c2ccc(Cl)cc2)nc2cc(-c3ccccc3)nn12 | – | – | – | – | – | – | – | – | – | – | stark cytotoxischen Effekt | deutlichen cytotoxischen Effekt | deutlichen cytotoxischen Effekt | ≥ 2 -fach | Besonders hohe antiandrogene Potenz | stark cytotoxischen Effekt | 10.4 | 43,64% |
| CCNCCCCc1nc(-c2ccc(Cl)cc2)nc2c(-c3ccccc3)cnn12 | – | – | – | – | – | – | – | – | – | – | stark cytotoxischen Effekt | deutlichen cytotoxischen Effekt | deutlichen cytotoxischen Effekt | ≥ 2 -fach | Besonders hohe antiandrogene Potenz | stark cytotoxischen Effekt | 4.18 | 83,4% |

From EP2221053A1, “Pharmaceutical composition comprising protein methyltransferase I inhibitors and its use for treating tumour diseases” (Albert-Ludwigs-Universität Freiburg, priority 2009, dated 2010)
